Experiments:
[1] = molecular target: T1, vIRF4^202-216 peptide (vif1); assay: competitive ITC, TRAF domain pre-titrated with competitor MDM2^137-152
T1 chain: SVWIPVNEGASTSGM

[2] = molecular target: T1, vIRF4^202-216 peptide (vif1); assay: competitive ITC, TRAF domain pre-titrated with competitor p53^355-369
[3] = molecular target: T1, vIRF4^202-216 peptide (vif1); assay: competitive ITC, TRAF domain pre-titrated with competitor p53^350-364

B1: HAUSP TRAF domain (HAUSP^62-205) (protein)
chain: DTSWRSEATFQFTVERFSRLSESVLSPPCFVRNLPWKIMVMPRFYPDRPHQKSVGFFLQCNAESDSTSWSCHAQAVLKIINYRDDEKSFSRRISHLFFHKENDWGFSNFMAWSEVTDPEKGFIDDDKVTFEVFVQADAPHGVAW
For B1, the Kobs [1] was 1.09e+07 M⁻¹, the Kobs [2] was 3.58e+07 M⁻¹ and the Kobs [3] was 4.42e+07 M⁻¹.

From patent US20180201654
